## Yeast mating assay 1: variants of the scFv Ab-14

Reference: Engelhart et al. 2022, doi:10.1038/s41597-022-01779-4. File: FLAb, binding data.

Target peptide (SARS-CoV-2 spike, HR2 region): PDVDLGDISGINAS

The variants keep the light chain, the linker and the frameworks of Ab-14 (scFv order VH, the linker GGGGSGGGGSGGGGS, VL).
VH: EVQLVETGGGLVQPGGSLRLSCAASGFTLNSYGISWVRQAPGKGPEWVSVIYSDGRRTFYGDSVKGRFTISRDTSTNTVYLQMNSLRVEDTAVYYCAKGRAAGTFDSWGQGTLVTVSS
VL: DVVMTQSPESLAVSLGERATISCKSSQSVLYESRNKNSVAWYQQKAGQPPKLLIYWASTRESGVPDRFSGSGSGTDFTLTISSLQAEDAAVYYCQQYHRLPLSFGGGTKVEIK

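The parent was found by panning a naive human phage display library on the peptide. Variants in AAYL49 differ from the parent at up to three CDR positions; double and triple changes were sampled at random. AlphaSeq pools MATa yeast showing the antibodies with MATalpha yeast showing the peptide. The frequency of each diploid, read from paired DNA barcodes, reflects how well the two displayed proteins bind. The ratio of observed to expected reads was calibrated, replicate by replicate, on BCL2-family standards whose Kd was known from biolayer interferometry. Each pool was mated in three replicate cultures.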

Sequences are complete VH domains. All variants listed here change T58 of the VH, counted from its first residue. Scale: log10 of Kd in nM, estimated from mating counts; low values are strong binders. Averages over replicates are reported, and they cover detected replicates only. A pair that was not seen in any replicate is written "nd"; this usually means weak binding, but a binder can also be missed. The list is sorted by this average, lowest first, undetected variants last. Empty control strains, which show no peptide, gave a signal in 15% of pairings with library AAYL49; the median was 4.06 and 95% of these signals were weaker than 2.83. No background was subtracted.

* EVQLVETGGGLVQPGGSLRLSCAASGFTVNSYGISWVRQAPGKGPEWVSVIYSDGRRAFYGQSVKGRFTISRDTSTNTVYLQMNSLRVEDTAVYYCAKGRAAGTFDSWGQGTLVTVSS -> 1.52 (3 of 3 replicates)
* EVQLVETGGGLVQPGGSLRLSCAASGFTLTSYGISWVRQAPGKGPEWVSVIYSDGRRHFYGDSVKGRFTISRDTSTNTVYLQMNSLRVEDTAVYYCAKGRAAGWFDSWGQGTLVTVSS -> 2.04 (1 of 3 replicates)
* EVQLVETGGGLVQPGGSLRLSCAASGFTLNSYGISWVRQAPGKGPEWVSQIYSDGRRSFYGDSWKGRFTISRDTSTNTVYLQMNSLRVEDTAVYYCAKGRAAGTFDSWGQGTLVTVSS -> 2.39 (1 of 3 replicates)
* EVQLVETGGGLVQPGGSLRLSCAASGFTLNDYGISWVRQAPGKGPEWVSVIYSDGRQLFYGDSVKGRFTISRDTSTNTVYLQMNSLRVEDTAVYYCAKGRAAGTFDSWGQGTLVTVSS -> 2.55 (3 of 3 replicates)
* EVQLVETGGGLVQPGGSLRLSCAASGFTLNSYGISWVRQAPGKGPEWVSVIYSDGRRWFYGDSVTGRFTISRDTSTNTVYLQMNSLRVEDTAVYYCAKGREAGTFDSWGQGTLVTVSS -> 2.97 (2 of 3 replicates)
* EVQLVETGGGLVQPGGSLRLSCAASGFTLNSYIISWVRQAPGKGPEWVSVIYSDGRRDFYGDSVKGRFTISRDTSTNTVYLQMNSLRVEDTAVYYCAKGRACGTFDSWGQGTLVTVSS -> 3.49 (1 of 3 replicates)
* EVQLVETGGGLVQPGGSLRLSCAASGFTLYSYGISWVRQAPGKGPEWVSVIYSDGRRNFRGDSVKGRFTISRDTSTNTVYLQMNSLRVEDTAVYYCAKGRAAGTFDSWGQGTLVTVSS -> 4.95 (1 of 3 replicates)
* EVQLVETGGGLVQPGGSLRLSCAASGFFLNSWGISWVRQAPGKGPEWVSVIYSDGRRYFYGDSVKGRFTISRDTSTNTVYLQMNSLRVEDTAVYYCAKGRAAGTFDSWGQGTLVTVSS -> nd (0 of 3 replicates)
* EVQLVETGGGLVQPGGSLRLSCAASGFTLNSYGISWVRQAPGKGPEWVSVIYSDGRRMPYGDSRKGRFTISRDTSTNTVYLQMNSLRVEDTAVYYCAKGRAAGTFDSWGQGTLVTVSS -> nd (0 of 3 replicates)
* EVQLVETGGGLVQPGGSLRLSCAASGFTLNSYGISWVRQAPGKGPEWVSVIYSDGRRLKYGDSWKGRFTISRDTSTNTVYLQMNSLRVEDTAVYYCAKGRAAGTFDSWGQGTLVTVSS -> nd (0 of 3 replicates)
* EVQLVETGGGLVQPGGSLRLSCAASGFTLNSYGISWVRQAPGKGPEWVSVIYSDGRRVFPGDSVKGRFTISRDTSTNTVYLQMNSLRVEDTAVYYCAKGRAAGTFDSWGQGTLVTVSS -> nd (0 of 3 replicates)
* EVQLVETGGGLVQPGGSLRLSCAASGFTLISYGISWVRQAPGKGPEWVSVIYSDGRRGLYGDSVKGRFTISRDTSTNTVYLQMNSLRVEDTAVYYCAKGRAAGTFDSWGQGTLVTVSS -> nd (0 of 3 replicates)
* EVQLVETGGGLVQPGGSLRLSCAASGFTLNSYGMSWVRQAPGKGPEWVSVIYSDGRQHFYGDSVKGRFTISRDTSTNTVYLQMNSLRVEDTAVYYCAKGRAAGTFDSWGQGTLVTVSS -> nd (0 of 3 replicates)
* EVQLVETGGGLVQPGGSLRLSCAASGFTLWSYGISWVRQAPGKGPEWVSVIYNDGRRAFYGDSVKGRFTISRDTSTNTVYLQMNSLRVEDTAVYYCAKGRAAGTFDSWGQGTLVTVSS -> nd (0 of 3 replicates)
* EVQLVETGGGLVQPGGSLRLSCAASGFTLNSYGISWVRQAPGKGPEWVSVIYSDGRRVFYGDSVKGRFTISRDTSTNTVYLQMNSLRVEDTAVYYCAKGRAAGTFDSWGQGTLVTVSS -> nd (0 of 3 replicates)